# In ChEMBL document CHEMBL1149560, “Discovery of a potent CDK2 inhibitor with a novel binding mode, using virtual screening and initial, structure-guided lead scoping” (Bioorg Med Chem Lett, 2007):
# Target: Cyclin-dependent kinase 2 (Homo sapiens, UniProt P24941)
# Assay: Inhibition of CDK2
row,IC50,SMILES
1,30 nM,C/C(=C1/SC(=N)NC1=O)c1ccc(-c2ccc(S(N)(=O)=O)cc2)o1
2,47000 nM,N=C1NC(=O)/C(=C/c2ccc(-c3ccc(C(=O)O)cc3)o2)S1
3,120 nM,CNS(=O)(=O)c1ccc(-c2ccc(/C=C3\SC(=N)NC3=O)o2)cc1
4,610 nM,N=C1NC(=O)/C(=C/c2ccc(-c3ccc(S(N)(=O)=O)c(C(F)(F)F)c3)o2)S1
